Patent US11639355B2, “Substituted pyrrolo[3,4-d]imidazoles as MDM2-p53 inhibitors” (LUOXIN PHARMACEUTICAL (SHANGHAI) CO., LTD., priority 2018, dated 2023)

Experiments:
[1] = Pharmacokinetic study in mice, tail vein injection and oral cassette dosing; conditions: for Half-life T1/2 / Oral bioavailability F / Oral exposure AUC0-t: female Balb/c mice; for Half-life T1/2 / half-life in vivo compared with NVP-HDM201: intravenous injection 0.5 mpk; for Oral bioavailability F: iv 0.5 mpk, oral 2 mpk; for Oral exposure AUC0-t: oral administration 2 mpk; for half-life in vivo compared with NVP-HDM201 / oral bioavailability compared with NVP-HDM201 / plasma exposure compared with NVP-HDM201: mice; for oral bioavailability compared with NVP-HDM201 / plasma exposure compared with NVP-HDM201: oral administration 2 mg/kg
Caco-2 cells = assay: Two-way permeability evaluation in Caco-2 cells
MDR1-MDCK cells = assay: Two-way permeability evaluation in MDR1-MDCK cells
[2] = Caco-2, 2 μM, pH 7.4, 2.5 hours

Row | SMILES | Half-life T1/2 [1] | Oral bioavailability F [1] | Oral exposure AUC0-t [1] | half-life in vivo compared with NVP-HDM201 [1] | oral bioavailability compared with NVP-HDM201 [1] | plasma exposure compared with NVP-HDM201 [1] | Average recovery rate A→B (Caco-2 cells; Caco-2) | Average recovery rate B→A (Caco-2 cells; Caco-2) | Average Papp A→B (Caco-2 cells; [2]) | Average Papp B→A (Caco-2 cells; [2]) | Average recovery rate A→B (MDR1-MDCK cells) | Average recovery rate B→A (MDR1-MDCK cells) | Average Papp A→B (MDR1-MDCK cells; 2 μM, pH 7.4, 2.5 hours) | Average Papp B→A (MDR1-MDCK cells; 2 μM, pH 7.4, 2.5 hours)
1 | COc1ncc(-c2nc3c(n2C(C)C)C(c2ccc(Cl)cc2)N(c2ccc4c(c2)OCO4)C3=O)c(OC)n1 (single isomer, unassigned) | 1.73 h | 64.4% | 9.626 µM·h | longer half-life | higher oral bioavailability | significantly greater plasma exposure |  |  |  |  |  |  |  | 
2 | COc1ncc(-c2nc3c(n2C(C)C)[C@@](C)(c2ccc(Cl)cc2)N(c2ccc4c(c2)OCO4)C3=O)c(OC)n1 | 1.18 h | 97.4% | 10.377 µM·h | longer half-life | higher oral bioavailability | significantly greater plasma exposure | 73.22% | 85.58% | 1.15 10^−6 cm/s | 43.41 10^−6 cm/s | 80.87% | 78.5% | 3.38 10^−6 cm/s | 23.6 10^−6 cm/s
